The record followed here is patent publication US8557784B2, “Glycyrrhizinates of morphinan derivatives” (Standard Chem. & Pharm. Co., Ltd., priority 2011, dated 2013).

The data set can be described thus: Solubility in water: water added by degrees until 0.1 g of compound fully dissolves.

On to dextromethorphan glycyrrhizinate, for which, under “comparison in words”, the “Solubility compared with dextromethorphan hydrobromide” value was “less than dextromethorphan hydrobromide”. For the setting “water, 28° C.”, the “Solubility (28° C.)” value stood at 0.067% and the “Water quantity for dissolving 0.1 g solute” value is 150 mL.
